Read-outs that look alike come from different tables or passages of the source.
How the values were obtained:
Format in all cases: binding
[1] = target: T1, CXCL12 (Homo sapiens, UniProt P48061); assay: Dot blot, TAMRA-msR4M-L1 on spotted human CXCL12
T1 construct: purchased Peprotech
Description: (§1) Non-specific binding was blocked with Tris-buffered saline (TBS), pH 7.4, containing 0.1% Tween-20 (TBS-T) and 1% BSA. […] Fluorescence intensities were measured at 600 nm using an Odyssey® Fc imager (LICOR Biosciences, Bad Homburg, Germany). The total intensity of each spot was automatically corrected by the individual background signal.

Amino acid sequences for entries named in this document (tags omitted). Residues count along the entry.
UniProt P48061, 22-89 limits assumed: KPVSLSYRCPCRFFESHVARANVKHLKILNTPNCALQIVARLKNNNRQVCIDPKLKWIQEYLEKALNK

[2] = target: T2, MIF (Homo sapiens, UniProt P14174); assay: Dot blot, TAMRA-msR4M-L1 on spotted human MIF (incl. competition with MIF[54–80])
T2 construct: made in house; host or cells: E. coli BL21/DE3 (pET11b)
T2 sequence (P14174 2-115): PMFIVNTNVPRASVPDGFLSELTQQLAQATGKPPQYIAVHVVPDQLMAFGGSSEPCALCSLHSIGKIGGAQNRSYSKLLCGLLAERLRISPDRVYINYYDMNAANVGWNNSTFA
Description: as §1

[3] = target: T1, CXCL12; assay: Fluorescence spectroscopic titration of Fluos-labeled ectodomain peptides with CXCL12
[4] = fluorescence spectroscopy, Fluos-labeled peptide 5 nM titrated with CXCL12, mean ± SD of 3, read-out: Fluos (TAMRA)-ECD/CXCL12 (app. KD)

**Q.** For `CC[C@H](C)[C@H](NC(=O)[C@H](Cc1ccc(O)cc1)NC(=O)[C@H](CCCNC(=N)N)NC(=O)[C@H](CC(=O)O)NC(=O)CCCCCCCCCCCNC(=O)CCCCCNC(=O)[C@H](CCCCN)NC(=O)[C@H](CS)NC(=O)[C@H](CC(C)C)NC(=O)[C@H](Cc1ccccc1)NC(=O)[C@H](CC(N)=O)NC(=O)CNC(=O)[C@H](Cc1ccccc1)NC(=O)[C@H](Cc1ccc(O)cc1)NC(=O)[C@H](Cc1c[nH]c2ccccc12)NC(=O)[C@H](CC(N)=O)NC(=O)[C@H](C)NC(=O)[C@@H](NC(=O)[C@H](C)NC(=O)[C@H](CC(=O)O)NC(=O)c1ccc2c(c1)C(=O)OC21c2ccc(N(C)C)cc2Oc2cc(N(C)C)ccc21)C(C)C)C(=O)N[C@@H](CS)C(=O)N[C@@H](CC(=O)O)C(=O)N[C@@H](CCCNC(=N)N)C(=O)N[C@@H](Cc1ccccc1)C(=O)N[C@@H](Cc1ccc(O)cc1)C(=O)N1CCC[C@H]1C(=O)N[C@@H](CC(N)=O)C(=O)N[C@@H](CC(=O)O)C(=O)N[C@@H](CC(C)C)C(=O)N[C@@H](Cc1c[nH]c2ccccc12)C(=O)N[C@H](C(N)=O)C(C)C` [TAMRA-msR4M-L1], which “binding to immobilized CXCL12 by dot blot” value [1] is on record?
**A.** The value was “no binding”.

**Q.** And the “detection of immobilized MIF by dot blot” value [2]?
**A.** The value was “readily detected in a concentration-dependent manner”.

**Q.** With `CC[C@H](C)[C@H](NC(=O)[C@H](Cc1ccc(O)cc1)NC(=O)[C@H](CCCNC(=N)N)NC(=O)[C@H](CC(=O)O)NC(=O)CCCCCCCCCCCNC(=O)COCCOCCNC(=O)[C@H](CCCCN)NC(=O)[C@H](CS)NC(=O)[C@H](CC(C)C)NC(=O)[C@H](Cc1ccccc1)NC(=O)[C@H](CC(N)=O)NC(=O)CNC(=O)[C@H](Cc1ccccc1)NC(=O)[C@H](Cc1ccc(O)cc1)NC(=O)[C@H](Cc1c[nH]c2ccccc12)NC(=O)[C@H](CC(N)=O)NC(=O)[C@H](C)NC(=O)[C@@H](NC(=O)[C@H](C)NC(=O)[C@@H](N)CC(=O)O)C(C)C)C(=O)N[C@@H](CS)C(=O)N[C@@H](CC(=O)O)C(=O)N[C@@H](CCCNC(=N)N)C(=O)N[C@@H](Cc1ccccc1)C(=O)N[C@@H](Cc1ccc(O)cc1)C(=O)N1CCC[C@H]1C(=O)N[C@@H](CC(N)=O)C(=O)N[C@@H](CC(=O)O)C(=O)N[C@@H](CC(C)C)C(=O)N[C@@H](Cc1c[nH]c2ccccc12)C(=O)N[C@H](C(N)=O)C(C)C` [msR4M-L2] as the compound, how does the Kd ([3]; Fluos-labeled peptide titrated with CXCL12, emission at 522 nm, 1st curve, read-out: App. Kd, 1st curve) read?
**A.** The Kd was > 6340 nM.

**Q.** And the Kd ([3]; Fluos-labeled peptide titrated with CXCL12, emission at 522 nm, 2nd curve, read-out: App. Kd, 2nd curve)?
**A.** Its Kd is > 6340 nM.

**Q.** What about the Kd ([3]; Fluos-labeled peptide titrated with CXCL12, emission at 522 nm, 3rd curve, read-out: App. Kd, 3rd curve) of the same compound?
**A.** The Kd was > 6340 nM.

**Q.** Which Kd [3, 4] does the source give for `CC[C@H](C)[C@@H]1NC(=O)[C@H](Cc2ccc(O)cc2)NC(=O)[C@H](CCCNC(=N)N)NC(=O)[C@H](CC(=O)O)NC(=O)CCCCCCCCCCCNC(=O)COCCOCCNC(=O)[C@H](CCCCN)NC(=O)[C@@H](NC(=O)[C@H](CC(C)C)NC(=O)[C@H](Cc2ccccc2)NC(=O)[C@H](CC(N)=O)NC(=O)CNC(=O)[C@H](Cc2ccccc2)NC(=O)[C@H](Cc2ccc(O)cc2)NC(=O)[C@H](Cc2c[nH]c3ccccc23)NC(=O)[C@H](CC(N)=O)NC(=O)[C@H](C)NC(=O)[C@@H](NC(=O)[C@H](C)NC(=O)[C@@H](N)CC(=O)O)C(C)C)CSSC[C@@H](C(=O)N[C@@H](CC(=O)O)C(=O)N[C@@H](CCCNC(=N)N)C(=O)N[C@@H](Cc2ccccc2)C(=O)N[C@@H](Cc2ccc(O)cc2)C(=O)N2CCC[C@H]2C(=O)N[C@@H](CC(N)=O)C(=O)N[C@@H](CC(=O)O)C(=O)N[C@@H](CC(C)C)C(=O)N[C@@H](Cc2c[nH]c3ccccc23)C(=O)N[C@H](C(N)=O)C(C)C)NC1=O` [msR4M-L2ox] here?
**A.** Its Kd is 54.8 ± 10.3 nM.

**Q.** With `CC[C@H](C)[C@@H]1NC(=O)[C@H](Cc2ccc(O)cc2)NC(=O)[C@H](CCCNC(=N)N)NC(=O)[C@H](CC(=O)O)NC(=O)CCCCCCCCCCCNC(=O)CCCCCNC(=O)[C@H](CCCCN)NC(=O)[C@@H](NC(=O)[C@H](CC(C)C)NC(=O)[C@H](Cc2ccccc2)NC(=O)[C@H](CC(N)=O)NC(=O)CNC(=O)[C@H](Cc2ccccc2)NC(=O)[C@H](Cc2ccc(O)cc2)NC(=O)[C@H](Cc2c[nH]c3ccccc23)NC(=O)[C@H](CC(N)=O)NC(=O)[C@H](C)NC(=O)[C@@H](NC(=O)[C@H](C)NC(=O)[C@@H](N)CC(=O)O)C(C)C)CSSC[C@@H](C(=O)N[C@@H](CC(=O)O)C(=O)N[C@@H](CCCNC(=N)N)C(=O)N[C@@H](Cc2ccccc2)C(=O)N[C@@H](Cc2ccc(O)cc2)C(=O)N2CCC[C@H]2C(=O)N[C@@H](CC(N)=O)C(=O)N[C@@H](CC(=O)O)C(=O)N[C@@H](CC(C)C)C(=O)N[C@@H](Cc2c[nH]c3ccccc23)C(=O)N[C@H](C(N)=O)C(C)C)NC1=O` [msR4M-L1ox] as the compound, how does the Kd [3, 4] read?
**A.** The Kd was 84.6 ± 42.1 nM.

Source: publication PMC7689490, “Designed CXCR4 mimic acts as a soluble chemokine receptor that blocks atherogenic inflammation by agonist-specific targeting” (Nature Communications, 2020)
